Reference: patent US8981106B2, “Pyrimidinecarboxamides as CXCR2 modulators” (Syntrix Biosystems, Inc., priority 2009, dated 2015)

Protein sequences, listed by entry. Tags and fused reporters are not part of them.
UniProt P25025, whole entry: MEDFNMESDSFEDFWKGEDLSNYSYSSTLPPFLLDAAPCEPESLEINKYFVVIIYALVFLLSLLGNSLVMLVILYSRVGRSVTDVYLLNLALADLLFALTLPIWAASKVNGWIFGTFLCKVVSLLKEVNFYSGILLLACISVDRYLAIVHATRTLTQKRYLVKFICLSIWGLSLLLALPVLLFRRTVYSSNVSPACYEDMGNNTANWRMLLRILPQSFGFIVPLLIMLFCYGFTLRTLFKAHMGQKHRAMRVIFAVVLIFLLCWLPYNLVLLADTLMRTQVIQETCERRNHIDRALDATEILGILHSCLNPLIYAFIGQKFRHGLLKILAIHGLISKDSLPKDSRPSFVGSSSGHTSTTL

Legend:
CXCR2 [1] = biological target: T1, CXCR2 (Homo sapiens (Human), UniProt P25025); assay: Inhibition of GROα-mediated intracellular calcium release in human neutrophils (FLIPR-3 Ca2+ mobilization); type: cell-based; settings: 25 nM GROα
Method: (§1) In Tables 1-5, the IC50 or EC50 values were determined using the following assay. This assay measures intracellular calcium release via fluorescence as an indication of CXCR2 receptor activation by the physiologic agonist GROα. The assay is a Ca^2+ mobilization assay that measures changes in intracellular Ca^2+ with a FlexStation II scanning fluorometer using a FLIPR-3 Calcium Assay Kit (Molecular Devices, Sunnyvale, Calif.). The procedure is as follows:
1. Human neutrophils were suspended in HBSS^− (without Ca^2+ and Mg^2+) containing 10 mM HEPES and FLIPR Calcium 3 dye (3.1×10^7 cells in total volume 1.7 mL).
2. […] As controls, 2 μL of DMSO (1% final concentration) were added to other 2 tubes.
3. Cells were incubated for 30 min at 37° C.
4. […]
6. The cell suspension was aliquoted into a 96-well Reading Plate (Corning) in a volume of 90 μL (10^5 cells/well). […]
9. The maximum change in fluorescence, expressed in arbitrary units over baseline (Max-Min) was used to determine the GROα response. […]
Briefly, human neutrophils were suspended in HBSS^− (without Ca^2+ and Mg^2+) containing 10 mM HEPES and FLIPR Calcium 3 dye (3.1×10^7 cells in total volume 1.7 mL). […] The cell suspension was aliquoted into a 96-well Reading Plate (Corning) in a volume of 90 μL (10^5 cells/well). […]
(§2) The maximum change in fluorescence, expressed in arbitrary units over baseline (Max-Min), was used to determine the GROα response.

CXCR2 [2] = biological target: T1, CXCR2; assay: Agonist activity: intracellular calcium release in human neutrophils in the absence of GROα; type: cell-based
Method: as §1
9. The maximum change in fluorescence, expressed in arbitrary units over baseline (Max-Min) was used to determine the GROα response. […] Therapeutic Activity
as §2
Intracellular calcium release is a hallmark of CXCR2 activation by endogenous agonists, such as GROα and IL-8.

IC50 (CXCR2 [1]): 22 nM | EC50 (CXCR2 [2]): 1250 nM
Structure (SMILES): O=C(Nc1ccc(F)cc1)c1ccc(SCc2cc(OC(F)(F)F)ccc2B(O)O)nc1 [Compound 2, 6-(2-boronic acid-5-trifluoromethoxy-benzylsulfanyl)-N-(4-fluoro-phenyl)-nicotinamide]
